Assay results taken from patent US20100098696A1.

Biological target: FGFR-3 K650E mutant on OPM-2 cells (human) (UniProt P22607)
Assay: cell-based or functional assay

With “FGF-9 (from UniProt P31371 1-208) (ligand)” the phosphor-FGFR-3 western blot signal, OPM-2 cells, 0.2 nM FGF-9 was 3 fold and the phosphor-MAPK western blot signal, OPM-2 cells, 0.2 nM FGF-9 was > 2 fold.
